This is a selection; strong and weak results do not stand in their true shares. Active and inactive are the calls of the source.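 Rule for the calls: active = drop in luminescence signal, shown as inhibition above about 50% in the replicate tests (limit read from the data, passing the limit was not always enough); inconclusive = probably only some replicates passing the limit; inactive = the rest.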

This assay deals with Drosophila bursicon receptor LGR2 (rickets). The assay is described as follows: LGR2 cAMP reporter signal reduction – cell-based, HEK293, CRE-luciferase reporter, bursicon stimulation, primary screen (AID 720647).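 Note: agonist challenge used bursicon conditioned medium at about half maximal strength.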 The settings on record: bursicon-stimulated, 4 h, at 9.99 µM, active compounds read high. (Reporter assays use an easily measured gene product as a stand-in for the process of interest.)
In general, inhibition refers to the drop in the measured response relative to a control, in per cent. As for `CCC(=O)N(c1ccccc1)C1(COC)CCN(CCc2cccs2)CC1`, the inhibition was inactive: 5.37%.
Then `CCC(=O)N(c1ccccc1)C1(COC)CCN(CCn2nnn(CC)c2=O)CC1`, with inactive: -12.9%.

For the origin of these results see PubChem BioAssay AID720647 (Broad Institute, 2013).
